ChEMBL document CHEMBL4476868, “Benzimidazole derivatives and uses thereof” (2017)

Sequences of proteins named here, by UniProt entry; tags and fusion partners are left off.
UniProt Q9NR19, whole entry: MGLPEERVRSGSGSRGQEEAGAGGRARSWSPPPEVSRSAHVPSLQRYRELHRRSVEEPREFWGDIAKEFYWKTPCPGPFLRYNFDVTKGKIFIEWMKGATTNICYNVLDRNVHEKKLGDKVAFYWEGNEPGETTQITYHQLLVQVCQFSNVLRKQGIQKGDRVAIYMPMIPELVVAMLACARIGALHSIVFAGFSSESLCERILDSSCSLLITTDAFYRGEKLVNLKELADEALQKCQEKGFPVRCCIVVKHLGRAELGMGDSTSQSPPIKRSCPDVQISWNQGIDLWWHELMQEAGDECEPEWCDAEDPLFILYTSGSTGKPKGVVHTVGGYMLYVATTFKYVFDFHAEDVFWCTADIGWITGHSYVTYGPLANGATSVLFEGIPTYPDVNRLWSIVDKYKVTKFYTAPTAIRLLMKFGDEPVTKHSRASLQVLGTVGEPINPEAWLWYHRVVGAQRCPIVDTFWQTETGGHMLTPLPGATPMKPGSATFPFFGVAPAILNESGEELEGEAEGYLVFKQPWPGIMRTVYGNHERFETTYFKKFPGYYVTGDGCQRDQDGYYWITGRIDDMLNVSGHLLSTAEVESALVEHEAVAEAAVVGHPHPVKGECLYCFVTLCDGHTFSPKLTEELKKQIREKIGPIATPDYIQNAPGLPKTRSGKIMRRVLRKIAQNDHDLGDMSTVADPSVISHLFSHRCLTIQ

molecular target: T1, Acetyl-coenzyme A synthetase, cytoplasmic (Homo sapiens, UniProt Q9NR19); test: Inhibition of ACSS2 in human HCT116 cells pre-incubated for 2 hrs before [1,2-14C] sodium acetate addition and measured after 3 hrs by [14C]-Acetate uptake assay; assay type: cell-based

IC50, < 0.05 µM:
Cn1c(C(O)(c2ccccc2)c2ccccc2)nc2ccc(S(N)(=O)=O)cc21, C[C@@H](O)CNC(=O)c1ccc2nc(C(O)(c3ccccc3F)c3ccccc3F)n(C)c2c1, CCN1C[C@@H](NC(=O)c2ccc3nc(C(O)(c4ccccc4F)c4ccccc4F)n(CC)c3c2)CCC1=O

molecular target: T1, Acetyl-coenzyme A synthetase, cytoplasmic; test: Inhibition of N-terminal 6x-histidine tagged human ACSS2 expressed in insect cells assessed as reduction in pyrophosphate production using CoA and ATP incubated for 30 mins by pyrophosphatase coupled enzymatic assay

IC50, < 0.05 µM:
CCn1c(C(O)(c2ccccc2)c2ccccc2)nc2ccc(C(=O)Nc3ccn(CCOC)n3)cc21, CCc1cccc(NC(=O)c2ccc3nc(C(O)(c4ccccc4)c4ccccc4)n(CC)c3c2)c1, OCCCc1ccc2nc(C(O)(c3ccccc3)c3ccccc3)n(CCO)c2c1, CCn1c(C(O)(c2ccccc2)c2ccccc2)nc2ccc(C(=O)NC[C@H](O)COC)cc21, CCn1c(C(O)(c2ccccc2)c2ccccc2)nc2ccc(C(=O)Nc3cccc(OC)c3)cc21, CCn1c(C(O)(c2ccccc2)c2ccccc2)nc2ccc(C(=O)Nc3ccn(C4CC4)n3)cc21, CCn1c(C(O)(c2ccccc2)c2ccccc2)nc2ccc(C(=O)N[C@@H]3CCC[C@H](O)C3)cc21, CCn1c(C(O)(c2ccccc2)c2ccccc2)nc2ccc(S(C)(=O)=O)cc21, NS(=O)(=O)c1ccc2nc(C(O)(c3ccccc3F)c3ccccc3F)n(CCO)c2c1, CCn1c(C(O)(c2ccccc2)c2ccccc2)nc2ccc(C(=O)Nc3ccn(CCO)n3)cc21, CCn1ccc(NC(=O)c2ccc3nc(C(O)(c4ccccc4F)c4ccccc4F)n(CC)c3c2)n1, Cn1c(C(O)(c2ccccc2F)c2ccccc2F)nc2ccc(C(=O)NCCF)cc21, CCN1C[C@@H](NC(=O)c2ccc3nc(C(O)(c4ccccc4)c4ccccc4)n(C)c3c2)CCC1=O, CCn1c(C(O)(c2ccccc2)c2ccccc2)nc2ccc(C(=O)Nc3ccn(CC(C)C)n3)cc21, CCn1cnc(NC(=O)c2ccc3nc(C(O)(c4ccccc4F)c4ccccc4F)n(CC)c3c2)n1, CCn1c(C(O)(c2ccccc2)c2ccccc2)nc2ccc(C(=O)Nc3cncc(OC)c3)cc21, NS(=O)(=O)c1ccc2nc(C(O)(c3ccccc3)c3ccccc3)n(CCO)c2c1, CCn1c(C(O)(c2ccccc2)c2ccccc2)nc2ccc(C(=O)NC[C@H](O)CF)cc21, CCn1c(C(O)(c2ccccc2)c2ccccc2)nc2ccc(C(=O)NCC(F)(F)CO)cc21, CCn1c(C(O)(c2ccccc2)c2ccccc2)nc2ccc(C(=O)NC[C@H](O)CCC(F)F)cc21, CCn1c(C(O)(c2ccccc2)c2ccccc2)nc2ccc(C(=O)Nc3cc(OC)cc(OC)c3)cc21, Cn1c(C(O)(c2ccccc2F)c2ccccc2F)nc2ccc(C(=O)NCC(F)F)cc21, CCN1CC(NC(=O)c2ccc3nc(C(O)(c4ccccc4)c4ccccc4)n(CC)c3c2)CCC1=O (stereo not drawn), CCn1c(C(O)(c2ccccc2)c2ccccc2)nc2ccc(NC(=O)CO)cc21, CCn1cc(NC(=O)c2ccc3nc(C(O)(c4ccccc4)c4ccccc4)n(CC)c3c2)cn1
